Consider two compounds from ChEMBL document CHEMBL5523761 (J Med Chem, 2024).

The chains behind the UniProt entries cited, without tags or fusion partners.
UniProt P34972, whole entry: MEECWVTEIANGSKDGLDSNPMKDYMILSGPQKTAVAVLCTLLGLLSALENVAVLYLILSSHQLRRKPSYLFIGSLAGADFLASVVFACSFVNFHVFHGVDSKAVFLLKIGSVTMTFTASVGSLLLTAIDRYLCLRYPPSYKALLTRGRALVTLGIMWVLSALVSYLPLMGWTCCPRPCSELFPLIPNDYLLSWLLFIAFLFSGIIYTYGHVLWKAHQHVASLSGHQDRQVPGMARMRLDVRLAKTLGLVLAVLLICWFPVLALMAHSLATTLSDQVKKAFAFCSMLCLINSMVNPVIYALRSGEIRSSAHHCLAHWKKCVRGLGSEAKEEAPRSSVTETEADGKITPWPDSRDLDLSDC
UniProt P08913, whole entry: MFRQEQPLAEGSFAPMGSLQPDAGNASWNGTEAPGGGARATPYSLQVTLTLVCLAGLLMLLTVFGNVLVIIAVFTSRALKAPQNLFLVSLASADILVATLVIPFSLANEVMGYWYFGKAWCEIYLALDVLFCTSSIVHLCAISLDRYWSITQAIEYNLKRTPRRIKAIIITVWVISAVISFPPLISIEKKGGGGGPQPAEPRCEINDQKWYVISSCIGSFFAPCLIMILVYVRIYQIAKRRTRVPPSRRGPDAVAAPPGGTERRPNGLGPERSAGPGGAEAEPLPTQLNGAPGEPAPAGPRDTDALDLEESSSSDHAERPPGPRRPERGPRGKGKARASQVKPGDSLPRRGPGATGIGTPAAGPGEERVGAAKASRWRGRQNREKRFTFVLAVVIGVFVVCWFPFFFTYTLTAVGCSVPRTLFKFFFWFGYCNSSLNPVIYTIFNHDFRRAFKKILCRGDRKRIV

Experiment [1] concerns the target T1, Cannabinoid receptor 2 (Homo sapiens, UniProt P34972).
The target of experiment [2] is T1, Cannabinoid receptor 2. The source holds these as a separate data set.
Experiment [3] has as its target Alpha-2A adrenergic receptor (Homo sapiens, UniProt P08913).

Turning to `C=C(C)[C@@H]1CCC(C)=C[C@H]1c1c(O)cc(CCCCC)cc1O` [CANNABIDIOL], the Ki on Cannabinoid receptor 2 [1] is 4580 nM. On Cannabinoid receptor 2 [2], this compound displayed an EC50 of 104 nM.

In turn, `CC(C)C[C@H]1C(=O)N2CCC[C@H]2[C@]2(O)O[C@](NC(=O)[C@@H]3C=C4c5cccc6[nH]c(Br)c(c56)C[C@H]4N(C)C3)(C(C)C)C(=O)N12` [BROMOCRIPTINE] gave a Ki in experiment [3] of 26 nM.
